Assay results as given in paper PMC7345905, “Microbial Metabolite Urolithin B Inhibits Recombinant Human Monoamine Oxidase A Enzyme” (Metabolites, 2020).

By UniProt entry, the sequences of proteins in these tests, tags left out.
UniProt P27338, whole entry: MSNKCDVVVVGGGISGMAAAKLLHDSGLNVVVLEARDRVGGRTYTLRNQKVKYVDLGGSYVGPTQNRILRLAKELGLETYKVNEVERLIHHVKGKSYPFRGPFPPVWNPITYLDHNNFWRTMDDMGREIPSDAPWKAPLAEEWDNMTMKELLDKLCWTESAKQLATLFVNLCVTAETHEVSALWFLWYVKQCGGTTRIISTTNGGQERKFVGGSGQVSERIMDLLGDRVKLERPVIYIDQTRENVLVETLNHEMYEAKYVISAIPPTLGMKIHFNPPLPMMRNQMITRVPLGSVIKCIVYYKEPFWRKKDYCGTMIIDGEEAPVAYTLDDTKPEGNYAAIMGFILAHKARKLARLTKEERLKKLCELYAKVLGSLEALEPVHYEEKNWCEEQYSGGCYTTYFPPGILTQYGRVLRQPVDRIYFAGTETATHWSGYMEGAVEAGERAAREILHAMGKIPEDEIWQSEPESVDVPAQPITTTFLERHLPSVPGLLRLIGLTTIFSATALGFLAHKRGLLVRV

Target: T1, human recombinant MAO-B (Homo sapiens, UniProt P27338)
T1 construct: purchased Sigma-Aldrich
Experiment: MAO-Glo MAO-B inhibition assay
Type: biochemical
Method: MAO inhibition assays were performed using a MAO-Glo™ Assay kit (Promega) according to the manufacturer’s instructions. Briefly, 1 µg of human recombinant MAO-A and MAO-B enzyme isoforms were incubated with 160 and 16 µM of MAO substrates, respectively. […] The enzyme reaction was quenched by the addition of a luciferin detection reagent. […] An equal volume of dimethyl sulfoxide (0.1%) was added to the enzyme assay as a control. After 1 h of incubation, the luminescence was measured with a multimode microplate reader (Synergy HT, BioTek, Winooski, VT, USA) to determine the MAO enzyme activities. Initially, the inhibition potential of all the test compounds was evaluated at a concentration of 100 μM. The control reaction (with no inhibitor) with vehicle (DMSO 0.1%) was set at 100% activity. To determine IC50 of the test compounds, the dose dependent enzyme assays were performed. […] The type of enzyme inhibition was determined using variable concentrations of MAO-A substrate (10–360 µM) and MAO-B substrate (2–64 µM) for the respective enzyme assay. […] A Lineweaver–Burk double reciprocal plot was generated, and the mode of inhibition was determined by visual examination of the plot. The slope of the reciprocal plots was plotted against the inhibitor concentrations and determined the x-axis intercept that represented the inhibitor constant, Ki value.

**Q.** deprenyl [reference compound] was tested. Which “MAO-B enzyme assay, Percent of control” value did it give?
**A.** Its value is 23.6257% of control and 26.4174% of control and 28.6413% of control.

**Q.** And the “inhibition of MAO-B enzyme activity” value (5 µM)?
**A.** The value was “more than 60%”.

Several values for one entry are separate records, joined by “and”; a condition that tells them apart may be missing. Equal entries are not always repeated.
